Here are results for four compounds from US20090227575A1, “7H-PYRROLO[2,3-H]QUINAZOLINE COMPOUNDS, THEIR USE AS mTOR KINASE AND PI3 KINASE INHIBITORS, AND THEIR [sequence]” (Wyeth, priority 2008, published 2009).

In the test the target is Human mTOR (Homo sapiens, UniProt P42345). The test is described as follows: mTOR kinase assay (DELFIA format, purified enzyme). Format: biochemical. Further details: FLAG. Conditions: read-out: TOR Kinase IC50.
As usually defined, the IC50 is the point on the concentration scale where inhibition reaches its midpoint. For “3-(7-methyl-4-morpholin-4-yl-7H-pyrrolo[2,3-h]quinazolin-2-yl)phenyl]methanol [Example 37]”, the IC50 amounted to 1200 nM. For `Cn1ccc2c3nc(-c4ccc(NS(C)(=O)=O)cc4)nc(N4CCOCC4)c3ccc21` [Example 21, N-[4-(7-methyl-4-morpholin-4-yl-7H-pyrrolo[2,3-h]quinazolin-2-yl)phenyl]methanesulfonamide] the value was 1200 nM; for `Cn1ccc2c3nc(-c4cccc(F)c4)nc(N4CCOCC4)c3ccc21` [Example 52, 2-(3-fluorophenyl)-7-methyl-4-morpholin-4-yl-7H-pyrrolo[2,3-h]quinazoline], 1200 nM; for `Cn1ccc2c3nc(-c4cccc(NC(=O)Nc5ccncc5)c4)nc(N4CCOCC4)c3ccc21` [Example 122, 1-[3-(7-methyl-4-morpholin-4-yl-7H-pyrrolo[2,3-h]quinazolin-2-yl)phenyl]-3-pyridin-4-ylurea], 1200 nM.
